This assay has as its target Protein kinase C beta type (Homo sapiens, UniProt P05771). Nature of the assay: Inhibition of PKCbeta1 by SPA.

The chains behind the UniProt entries cited, without tags or fusion partners.
UniProt P05771, whole entry: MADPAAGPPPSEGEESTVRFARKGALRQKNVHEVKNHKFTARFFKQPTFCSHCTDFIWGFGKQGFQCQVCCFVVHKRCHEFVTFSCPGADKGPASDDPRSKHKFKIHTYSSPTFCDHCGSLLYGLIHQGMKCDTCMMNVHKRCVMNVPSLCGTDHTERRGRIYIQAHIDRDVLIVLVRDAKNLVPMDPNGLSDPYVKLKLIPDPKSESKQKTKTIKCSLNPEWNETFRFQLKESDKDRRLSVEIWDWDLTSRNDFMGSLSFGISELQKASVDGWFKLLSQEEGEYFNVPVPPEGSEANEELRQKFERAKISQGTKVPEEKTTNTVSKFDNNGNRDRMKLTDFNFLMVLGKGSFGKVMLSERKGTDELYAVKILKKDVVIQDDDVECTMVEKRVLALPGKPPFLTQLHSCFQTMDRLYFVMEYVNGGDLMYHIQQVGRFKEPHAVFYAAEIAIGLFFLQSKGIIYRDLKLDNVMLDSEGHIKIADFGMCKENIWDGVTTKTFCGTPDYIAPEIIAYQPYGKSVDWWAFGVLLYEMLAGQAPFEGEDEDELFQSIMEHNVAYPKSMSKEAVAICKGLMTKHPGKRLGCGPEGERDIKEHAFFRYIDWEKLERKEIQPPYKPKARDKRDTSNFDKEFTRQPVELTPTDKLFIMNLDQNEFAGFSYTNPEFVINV

Results on 1 molecule are retold here after ChEMBL document CHEMBL1156112, “Discovery of 3-(1H-indol-3-yl)-4-[2-(4-methylpiperazin-1-yl)quinazolin-4-yl]pyrrole-2,5-dione (AEB071), a potent and selective inhibitor of protein kinase C isotypes” (J Med Chem, 2009).

As for `CN1CCN(c2nc(C3=C(c4c[nH]c5ccccc45)C(=O)NC3=O)c3ccccc3n2)CC1` [SOTRASTAURIN], it took 2 nM to reach half-maximal inhibition (IC50).
